Values quoted from earlier work, collected in patent publication US7728132B2, “Compositions for stabilizing chlorinated water to sunlight decomposition, and methods of preparation thereof” (Enviro Tech Chemical Services, Inc., priority 2007, dated 2010).

Conditions: cited from earlier work

O=c1[n-]c(=O)[nH]c(=O)[nH]1.[Na+] [monosodium cyanurate]
solubility relative to cyanuric acid: about twice the solubility of cyanuric acid
